The text below walks through data of patent US5298414A (priority 1989, dated 1994).

The chains behind the UniProt entries cited, without tags or fusion partners. Where a name states a change or a piece, a line headed by the entry shows the natural chain unless it says otherwise.
UniProt Q02198: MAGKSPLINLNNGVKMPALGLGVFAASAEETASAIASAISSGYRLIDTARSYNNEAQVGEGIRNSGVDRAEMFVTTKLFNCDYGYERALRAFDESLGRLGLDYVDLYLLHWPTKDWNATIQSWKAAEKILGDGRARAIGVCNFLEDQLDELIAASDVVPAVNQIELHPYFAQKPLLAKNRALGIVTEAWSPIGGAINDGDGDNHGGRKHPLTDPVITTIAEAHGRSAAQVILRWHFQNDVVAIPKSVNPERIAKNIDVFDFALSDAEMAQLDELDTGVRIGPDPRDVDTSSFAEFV

The target in test [1] is morphine dehydrogenase (MDH) (Pseudomonas putida, UniProt Q02198). The experiment in a line: Substrate analogues of MDH (Example 3, NADP+ reduction at 340 nm). It is filed as biochemical, Pseudomonas putida MlO. The settings on record: substrate 2 mM, glycine-NaOH pH 10, 5 μg purified MDH, 2 mM NADP, 30° C.
The subject of a further test is AMCE and MDH. The experiment in a line: Coupled AMCE/MDH spectrophotometric assay for the detection of heroin. The settings on record: pH 10, 2 mM NADP, 0.6 mg AMCE, 2.8 μg MDH, U = μmol. NADPH/min.

For `CC(=O)Oc1ccc2c3c1O[C@H]1[C@@H](OC(C)=O)C=C[C@H]4[C@@H](C2)N(C)CC[C@@]341`, the “ability to serve as MDH substrate” value in test [1] is “completely inactive”. Besides, the Activity in the test on AMCE and MDH (heroin 0.25 mM) turned out to be 0.03 U × 10^3; in the test with AMCE and MDH (heroin 0.5 mM), 0.08 U × 10^3; in the test with AMCE and MDH (heroin 0.75 mM) it was 0.2 U × 10^3; with AMCE and MDH (heroin 1.0 mM), 0.6 U × 10^3; in the test on AMCE and MDH (heroin 1.5 mM), 0.7 U × 10^3.
